Results from patent publication US6846802B2, “Macrocyclic NS3-serine protease inhibitors of hepatitis C virus comprising N-cyclic P2 moieties” (priority 2000, dated 2005).

Chains of the proteins cited; added tags and fusions are not shown. Residues count along the entry.
UniProt P27958, 1027-1657: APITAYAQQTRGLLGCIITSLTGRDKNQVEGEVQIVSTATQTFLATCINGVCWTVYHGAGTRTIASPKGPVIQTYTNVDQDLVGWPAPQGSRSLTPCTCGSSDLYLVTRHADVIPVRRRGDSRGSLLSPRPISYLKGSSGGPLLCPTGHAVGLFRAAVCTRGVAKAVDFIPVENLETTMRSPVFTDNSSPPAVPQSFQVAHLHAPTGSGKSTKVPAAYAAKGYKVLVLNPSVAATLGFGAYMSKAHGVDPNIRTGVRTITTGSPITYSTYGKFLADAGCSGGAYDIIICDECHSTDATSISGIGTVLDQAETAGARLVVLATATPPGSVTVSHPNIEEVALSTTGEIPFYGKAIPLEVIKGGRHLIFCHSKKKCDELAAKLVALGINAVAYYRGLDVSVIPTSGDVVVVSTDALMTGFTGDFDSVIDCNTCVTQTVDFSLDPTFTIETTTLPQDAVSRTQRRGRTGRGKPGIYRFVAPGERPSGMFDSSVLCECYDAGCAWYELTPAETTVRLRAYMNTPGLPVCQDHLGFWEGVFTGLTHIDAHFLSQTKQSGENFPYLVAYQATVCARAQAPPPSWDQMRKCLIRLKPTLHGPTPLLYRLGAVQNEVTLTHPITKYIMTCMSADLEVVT
UniProt P27958, 1658-1711: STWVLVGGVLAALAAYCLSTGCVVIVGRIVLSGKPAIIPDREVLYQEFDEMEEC

Target: Recombinant heterodimeric HCV NS3/NS4A protease (strain 1a) (Hepatitis C virus genotype 1a, UniProt P27958)
Assay: biochemical

| SMILES | Ki [µM] |
| --- | --- |
| CCC[C@H](NC(=O)[C@@H]1C[C@@H]2CN1C(=O)[C@H](C1CCCCC1)NC(=O)CCc1cccc(c1)OCCO2)C(=O)C(=O)NCC(=O)N[C@H](C(=O)N(C)C)c1ccccc1 [Compound 20B] | 0.001 to 0.1 |
| CC1(C)CCOc2cccc(c2)CC(=O)N[C@@H](C2CCCCC2)C(=O)N2C[C@@H](C[C@H]2C(=O)NC(CC2CC2)C(=O)C(N)=O)O1 (stereo partly shown) [Compound 88] | 0.101 to 100 |
| CCCC(NC(=O)[C@@H]1C[C@@H]2CN1C(=O)[C@H](C1CCCCC1)NC(=O)Cc1cccc(c1)OCCCO2)C(=O)C(=O)NCC(=O)OCc1ccccc1 (stereo partly shown) [Compound 23] | 0.101 to 100 |
| CCCC(NC(=O)[C@@H]1[C@@H]2CCN1C(=O)[C@H](C(C)(C)C)NC(=O)Cc1cccc(c1)OCCCCO2)C(=O)C(=O)NCC(=O)N[C@H](C(=O)N(C)C)c1ccccc1 (stereo partly shown) [Compound 111] | 0.001 to 0.1 |
| CCC[C@H](NC(=O)[C@@H]1C[C@@H]2CN1C(=O)[C@H](C(C)(C)C)NC(=O)Cc1cccc(c1)OCCCO2)C(=O)C(=O)NCC(=O)N[C@H](C(=O)N(C)C)c1ccccc1 [Compound 12B] | 0.001 to 0.1 |
| CCCC(NC(=O)[C@@H]1C[C@@H]2CN1C(=O)[C@H](C1CCCCC1)NC(=O)Cc1cccc(c1)OCCCS2(=O)=O)C(=O)C(=O)NCC(=O)N[C@H](C(=O)N(C)C)c1ccccc1 (stereo partly shown) [Compound 11] | 0.101 to 100 |
| CCC[C@@H](NC(=O)[C@@H]1[C@H]2OC3CCCOc4cccc(c4)CC(=O)N[C@@H](C4CCCCC4)C(=O)N1C[C@@H]2O3)C(=O)C(=O)NCC(=O)N[C@H](C(=O)N(C)C)c1ccccc1 [Compound 27A] | 0.101 to 100 |
| CCCC(NC(=O)[C@@H]1C[C@@H]2CN1C(=O)[C@H](C1CCCC(C(=O)O)C1)NC(=O)Cc1cccc(c1)OCCCO2)C(=O)C(=O)NCC(=O)N[C@H](C(=O)N(C)C)c1ccccc1 (stereo partly shown) [Compound 65] | 0.001 to 0.1 |
| CCCC(NC(=O)[C@@H]1C[C@@H]2CN1C(=O)[C@H](C1CCCCC1)NC(=O)CCc1cccc(c1)OCCO2)C(=O)C(=O)NCC(=O)N[C@H](C(=O)OC(C)(C)C)c1ccccc1 (stereo partly shown) [Compound 21] | 0.101 to 100 |
| CCCC(NC(=O)[C@@H]1C[C@@H]2CN1C(=O)[C@H](C1CCCCC1)NC(=O)Cc1cccc(c1)OCCCCO2)C(=O)C(=O)NCC(=O)N[C@H](COC(C)(C)C)c1ccccc1 (stereo partly shown) [Compound 71] | 0.001 to 0.1 |
| CCC[C@H](NC(=O)[C@@H]1C[C@@H]2CN1C(=O)[C@H](C1CCCCC1)NC(=O)Cc1cccc(c1)OCCCO2)C(=O)C(=O)NCC(=O)N[C@H](C(=O)N(C)C)C1Cc2ccccc2C1 [Compound 69B] | 0.001 to 0.1 |
| CCCC(NC(=O)C1C[C@@H]2CN1C(=O)C(C1CCCCC1)NC(=O)CCCCc1cccc(c1)S(=O)(=O)N2)C(=O)C(=O)NCC(=O)N[C@H](C(=O)OC(C)(C)C)c1ccccc1 (single isomer, unassigned) [Compound 37B] | 0.101 to 100 |
| CCCC(NC(=O)[C@@H]1C[C@@H]2CN1C(=O)[C@H](C1CCCCC1)NC(=O)Cc1cccc(c1)OCCCN2S(=O)(=O)c1ccccc1)C(=O)C(=O)NCC(=O)N[C@H](C(=O)N(C)C)c1ccccc1 (stereo partly shown) [Compound 43] | 0.001 to 0.1 |
| CCCC(NC(=O)[C@@H]1C[C@@H]2CN1C(=O)[C@H](C1Cc3ccccc3C1)NC(=O)Cc1cccc(c1)OCCC(C)(C)O2)C(=O)C(=O)NCC(=O)N[C@H](C(=O)N(C)C)c1ccccc1 (stereo partly shown) [Compound 68] | 0.001 to 0.1 |
| CCCC(NC(=O)[C@@H]1C[C@@H]2CN1C(=O)C(C1CCC(C(=O)OC(C)(C)C)CC1)NC(=O)Cc1cccc(c1)OCCCO2)C(=O)C(=O)NCC(=O)N[C@H](C(=O)N(C)C)c1ccccc1 (stereo partly shown) [Compound 16] | 0.001 to 0.1 |
| CCCC(NC(=O)[C@@H]1C[C@@H]2CN1C(=O)[C@H](C1CCCCC1)NC(=O)Nc1cccc(c1)OCCCO2)C(=O)C(=O)NCC(=O)N[C@H](C(=O)N(C)C)c1ccccc1 (stereo partly shown) [Compound 26A] | 0.101 to 100 |
| CCCC(NC(=O)[C@@H]1Cc2ccc3cc2CN1C(=O)[C@H](C1CCCCC1)NC(=O)CCc1ccc(cc1)O3)C(=O)C(=O)NCC(=O)N[C@H](C(=O)OC(C)(C)C)c1ccccc1 (stereo partly shown) [Compound 60] | 0.101 to 100 |
| CCCC(NC(=O)[C@@H]1[C@@H]2CCN1C(=O)[C@H](C(C)(C)C)NC(=O)Cc1cccc(c1)OCCCO2)C(=O)C(=O)NCC(=O)N[C@H](C(=O)N(C)C)c1ccccc1 (stereo partly shown) [Compound 110] | 0.001 to 0.1 |
| CCCC(NC(=O)[C@@H]1C[C@@H]2CN1C(=O)[C@H](C1CCCCC1)NC(=O)Cc1cccc(c1)OCCCO2)C(=O)C(=O)NCC(=O)NCc1ccccc1 (stereo partly shown) [Compound 25] | 0.101 to 100 |
| CC1(C)CCOc2cccc(c2)CC(=O)N[C@@H](C2Cc3ccccc3C2)C(=O)N2C[C@@H](C[C@H]2C(=O)NC(CC2CCC2)C(=O)C(N)=O)O1 (stereo partly shown) [Compound 73] | 0.101 to 100 |
| CCCC(NC(=O)[C@@H]1Cc2ccc3cc2CN1C(=O)[C@H](C1CCCCC1)NC(=O)CCCCCCO3)C(=O)C(=O)NCC(=O)N[C@H](C(=O)OC(C)(C)C)c1ccccc1 (mixture of isomers) [Compound 58] | 0.101 to 100 |
| C=CCNC(=O)C(=O)C(CCC)NC(=O)[C@@H]1C[C@@H]2CN1C(=O)[C@H](C(C)CC)NC(=O)Cc1cccc(c1)OCCC(C)(C)O2 (stereo partly shown) [Compound 102] | 0.101 to 100 |
| C=CCCC(NC(=O)[C@@H]1C[C@@H]2CN1C(=O)[C@H](C1CCCCC1)NC(=O)Cc1cccc(c1)OCCC(C)(C)O2)C(=O)C(N)=O (stereo partly shown) [Compound 87] | 0.101 to 100 |

| SMILES | Ki [µM] |
| --- | --- |
| CCC[C@@H](NC(=O)[C@@H]1C[C@@H]2CN1C(=O)[C@H](C1CCCCC1)NC(=O)N(C)Cc1cccc(c1)OCCCO2)C(=O)C(=O)NCC(=O)N[C@H](C(=O)N(C)C)c1ccccc1 [Compound 66A] | 0.101 to 100 |
| CCC[C@H](NC(=O)[C@@H]1C[C@@H]2CN1C(=O)[C@H](C1CCCCC1)NC(=O)Cc1cccc(c1)OCCCCO2)C(=O)C(=O)NCC(=O)N[C@H](C(=O)N(C)C)c1ccccc1 [Compound 4B] | 0.001 to 0.1 |
| CCC[C@H](NC(=O)[C@@H]1[C@H]2OC3CCCOc4cccc(c4)CC(=O)N[C@@H](C4CCCCC4)C(=O)N1C[C@@H]2O3)C(=O)C(=O)NCC(=O)N[C@H](C(=O)N(C)C)c1ccccc1 [Compound 27B] | 0.001 to 0.1 |
| CCC[C@@H](NC(=O)[C@@H]1[C@H]2OC3CCCOc4cccc(c4)CC(=O)N[C@@H](C4CCCCC4)C(=O)N1C[C@@H]2O3)C(=O)C(=O)NCC(=O)N[C@H](C(=O)OC(C)(C)C)c1ccccc1 [Compound 28A] | 0.101 to 100 |
| CCCCC(NC(=O)[C@@H]1C[C@@H]2CN1C(=O)[C@H](C1CCCCC1)NC(=O)Cc1cccc(c1)OCCC(C)(C)O2)C(=O)C(=O)NCC(=O)N[C@H](C(=O)N(C)C)c1ccccc1 (stereo partly shown) [Compound 83] | 0.001 to 0.1 |
| CSCCC(NC(=O)[C@@H]1C[C@@H]2CN1C(=O)[C@H](C(C)(C)C)NC(=O)Cc1cccc(c1)OCCCO2)C(=O)C(=O)NCC(=O)N[C@H](C(=O)N(C)C)c1ccccc1 (stereo partly shown) [Compound 46] | 0.101 to 100 |
| CCCC[C@H](NC(=O)[C@@H]1C[C@@H]2CN1C(=O)[C@H](C(C)(C)C)NC(=O)Cc1cccc(c1)OCCCO2)C(=O)C(=O)NCC(=O)N[C@H](C(=O)N(C)C)c1ccccc1 [Compound 13B] | 0.001 to 0.1 |
| CCCC(NC(=O)[C@@H]1C[C@@H]2CN1C(=O)[C@H](C1CCCCC1)NC(=O)Cc1cccc(c1)OCCC(C)(C)O2)C(=O)C(=O)NCCC(=O)OC(C)(C)C (stereo partly shown) [Compound 91] | 0.101 to 100 |
| CCC[C@H](NC(=O)[C@@H]1[C@H]2OC3CCCOc4cccc(c4)CC(=O)N[C@@H](C4CCCCC4)C(=O)N1C[C@@H]2O3)C(=O)C(=O)NCC(=O)N[C@H](C(=O)OC(C)(C)C)c1ccccc1 [Compound 28B] | 0.001 to 0.1 |
| CCCC(NC(=O)[C@@H]1C[C@@H]2CN1C(=O)[C@H](C(C)(C)C)NC(=O)Cc1cccc(c1)OCCC(C)(C)O2)C(=O)C(=O)NCC(=O)N[C@H](C(=O)N(C)C)c1ccccc1 (stereo partly shown) [Compound 92] | 0.001 to 0.1 |
| CCCC(NC(=O)[C@@H]1C[C@@H]2CN1C(=O)[C@H](C(C)C)NC(=O)Cc1cccc(c1)OCCC(C)(C)O2)C(=O)C(=O)NCC(=O)N[C@H](C(=O)N(C)C)c1ccccc1 (stereo partly shown) [Compound 95] | 0.001 to 0.1 |
| CCCC(NC(=O)C1C[C@@H]2CN1C(=O)C(C1CCCCC1)NC(=O)CCCCc1cccc(c1)S(=O)(=O)N2)C(=O)C(=O)NCC(=O)N[C@H](C(=O)O)c1ccccc1 (stereo partly shown) [Compound 38A] | 0.101 to 100 |
| CCCC(NC(=O)C1C[C@@H]2CN1C(=O)C(C1CCCCC1)NC(=O)CCCCc1ccc(cc1)S(=O)(=O)N2)C(=O)C(=O)NCC(=O)N[C@H](C(=O)OC(C)(C)C)c1ccccc1 (stereo partly shown) [Compound 39] | 0.101 to 100 |
| CCCC(NC(=O)[C@@H]1C[C@@H]2CN1C(=O)[C@H](C1CCCCC1)NC(=O)Cc1cccc(c1)OCCO2)C(=O)C(=O)NCC(=O)N[C@H](C(=O)O)c1ccccc1 (stereo partly shown) [Compound 9] | 0.001 to 0.1 |
| CCCC(NC(=O)C1C[C@@H]2CN1C(=O)C(C1CCCCC1)NC(=O)CCc1ccc(cc1)S(=O)(=O)N2)C(=O)C(=O)NCC(=O)N[C@H](C(=O)OC(C)(C)C)c1ccccc1 (stereo partly shown) [Compound 41] | 0.101 to 100 |
| CCCC[C@@H](NC(=O)[C@@H]1C[C@@H]2CN1C(=O)[C@H](C(C)(C)C)NC(=O)Cc1cccc(c1)OCCCO2)C(=O)C(=O)NCC(=O)N[C@H](C(=O)N(C)C)c1ccccc1 [Compound 13A] | 0.101 to 100 |
| CCCC(NC(=O)[C@@H]1C[C@@H]2CN1C(=O)[C@H](C1CCCCC1)NC(=O)Cc1cccc(c1)OCCCC(C)(C)O2)C(=O)C(N)=O (stereo partly shown) [Compound 107] | 0.101 to 100 |
| CCCCC(NC(=O)[C@@H]1C[C@@H]2CN1C(=O)[C@H](C1CCCCC1)NC(=O)Cc1cccc(c1)OCCC(C)(C)O2)C(=O)C(N)=O (stereo partly shown) [Compound 85] | 0.101 to 100 |
| CCCC(NC(=O)[C@@H]1C[C@@H]2CN1C(=O)[C@H](C1CCC(C(=O)O)CC1)NC(=O)Cc1cccc(c1)OCCCO2)C(=O)C(=O)NCC(=O)N[C@H](C(=O)N(C)C)c1ccccc1 (stereo partly shown) [Compound 17] | 0.001 to 0.1 |
| C=CCNC(=O)C(=O)C(CCCC)NC(=O)[C@@H]1C[C@@H]2CN1C(=O)[C@H](C1CCCCC1)NC(=O)Cc1cccc(c1)OCCC(C)(C)O2 (stereo partly shown) [Compound 84] | 0.101 to 100 |
| CCC[C@@H](NC(=O)[C@@H]1C[C@@H]2CN1C(=O)[C@H](C1CCCCC1)NC(=O)Cc1cccc(c1)OCCCCO2)C(=O)C(=O)NCC(=O)N[C@H](C(=O)N(C)C)c1ccccc1 [Compound 4A] | 0.101 to 100 |
| CCCC(NC(=O)[C@@H]1C[C@@H]2CN1C(=O)[C@H](C1CCCCC1)NC(=O)CCc1ccc(cc1)OCCCO2)C(=O)C(=O)NCC(=O)N[C@H](C(=O)N(C)C)c1ccccc1 (stereo partly shown) [Compound 64] | 0.101 to 100 |
| C=CCNC(=O)C(=O)C(CCC)NC(=O)[C@@H]1C[C@@H]2CN1C(=O)[C@H](C(C)(C)C)NC(=O)Cc1cccc(c1)OCCC(C)(C)O2 (stereo partly shown) [Compound 93] | 0.101 to 100 |
